Assay results published in patent US12358918B2, “Aryl hydrocarbon receptor (AHR) activator compounds as cancer therapeutics” (THE BROAD INSTITUTE, INC., priority 2018, dated 2025).

Molecular target: T1, recombinant human Adenosine A2B (FAST-003C) receptor (Homo sapiens, UniProt P29275)
T1 sequence (P29275 1-332): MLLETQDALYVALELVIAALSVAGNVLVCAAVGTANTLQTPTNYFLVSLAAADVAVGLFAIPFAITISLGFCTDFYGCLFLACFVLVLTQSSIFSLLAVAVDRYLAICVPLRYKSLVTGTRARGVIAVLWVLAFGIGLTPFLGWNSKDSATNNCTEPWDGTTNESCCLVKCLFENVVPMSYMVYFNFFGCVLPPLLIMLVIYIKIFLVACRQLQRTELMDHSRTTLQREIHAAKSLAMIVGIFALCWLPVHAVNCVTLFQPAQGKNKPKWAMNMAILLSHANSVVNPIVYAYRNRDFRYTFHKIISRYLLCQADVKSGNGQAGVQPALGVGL
Assay: cAMP HTRF assay, Adenosine A2B receptor, antagonist mode

Nc1nc2ccc(Cl)cc2c2nc(-c3ccco3)nn12 [CGS-15943, reference compound]
IC50: 0.0219 µM
